## Apparent affinities of Ab-14 variants for a coronavirus HR2 peptide

The measurements come from Engelhart et al. 2022 (doi:10.1038/s41597-022-01779-4) through the FLAb antibody collection.

Target peptide (SARS-CoV-2 spike, HR2 region): PDVDLGDISGINAS

Parent scFv Ab-14: VH joined to VL by the linker GGGGSGGGGSGGGGS. Changes lie in the heavy chain CDRs alone.
VH: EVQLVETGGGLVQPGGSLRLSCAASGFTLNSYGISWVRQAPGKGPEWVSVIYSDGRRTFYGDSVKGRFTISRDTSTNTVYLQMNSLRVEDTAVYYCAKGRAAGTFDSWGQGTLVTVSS
VL: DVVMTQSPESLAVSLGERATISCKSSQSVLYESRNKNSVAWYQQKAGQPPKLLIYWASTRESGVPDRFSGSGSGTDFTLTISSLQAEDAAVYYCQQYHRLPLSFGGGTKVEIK

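In library AAYL49, one, two or three CDR residues were substituted; doubles and triples were drawn at random. The scFvs were displayed on barcoded MATa yeast, the peptide on MATalpha yeast. Mating (16 h, 30 °C) was followed by selection of diploids and sequencing of their barcodes. Each replicate has its own calibration line, from reference interactions of the BCL2 family. The assay was run in three technical replicates.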

The parent's heavy chain CDRs are GFTLNSYGIS, VIYSDGRRTFYGDSVK, GRAAGTFDS; each variant's own CDRs replace them letter for letter. The read-out is the apparent dissociation constant on a log10 scale (nM): the lower, the stronger. An entry "ND" has no value in the source: the pair was not observed among the diploids in that replicate. This suggests poor binding but is not conclusive. For reference, the parent read 0.65 as the reference entry and 4.11 (one replicate of three) as a member of this library. Background: pairings of library AAYL49 with three empty control strains gave a value in 15% of cases (median 4.06, 5th percentile 2.83). Values in that range, when seen in few replicates, are hard to tell from nonspecific mating. For each scFv, signals with the empty controls are counted beside the result, with their mean in brackets.

CDR-H1	CDR-H2	CDR-H3	replicates, log10 nM	signal with controls
GFTLNSYGIE	VIYSDGRRTFYGDSVK	GRAAGTFTS	ND / ND / ND	0/9
GFTLNSLGIS	AIYSDGRRTFYGNSVK	GRAAGTFDS	ND / ND / ND	1/9 (5.30)
GVTLNSYGIS	PIYSDGRRTFYGDSVK	GRAAGTCDS	ND / ND / ND	0/9
GDFLNSYGIS	VIYSDGRRTFYGDSVK	GRAAGTFDS	1.18 / 1.35 / 1.35	5/9 (5.04)
GFQLNSYGIS	VIYSDGRRTFGGDSVK	GFAAGTFDS	4.41 / 4.15 / ND	0/9
GFTLNSYGIS	VIYSDGRRLFYGDSVK	GPAAKTFDS	ND / 4.39 / ND	1/9 (3.79)
GFTLNSYGIS	HIYSDGRRTFEGDSVK	GRADGTFDS	ND / ND / ND	0/9
GFTLNSPGIS	WIYSDGRRTFYIDSVK	GRAAGTFDS	ND / ND / ND	1/9 (2.85)
GFTNNSYGIS	VIYSDNRWTFYGDSVK	GRAAGTFDS	ND / ND / ND	0/9
GFTLNSYYLS	VIYSDGRRTFMGDSVK	GRAAGTFDS	ND / ND / 5.33	2/9 (3.37)
GFTPNSYGIS	MIYSDGRRTFYGDSCK	GRAAGTFDS	ND / 4.91 / ND	0/9
GFTLESYWIS	VIYSDGDRTFYGDSVK	GRAAGTFDS	ND / ND / ND	0/9
GFTLNSYGES	VIYSDGRHGFYGDSVK	GRAAGTFDS	5.15 / ND / ND	5/9 (4.44)
GCTLNSYGIS	VIYSDGRRTFAGDSVK	GRAAGTWDS	ND / ND / ND	1/9 (4.23)
GFTLISYGIS	VIYSDGRRTFYGDSVK	GRAAGTFDD	3.39 / ND / ND	0/9
GFTLNSYGIS	VHYSDGRRTFYGDSVK	QRIAGTFDS	ND / 3.49 / 5.25	3/9 (4.65)
GFTLNSYGMS	VIYSDGRQHFYGDSVK	GRAAGTFDS	ND / ND / ND	0/9
MFTLNSYGIS	VICSDGRRTFYGDSVK	GRAQGTFDS	ND / ND / ND	0/9
GFQLNSYGIS	VIYSDGRRTFYGDSKK	GRAAGTFNS	ND / ND / ND	0/9
GFTLNSYGIS	VIYSDGVRTFYGDVVK	GRAAPTFDS	4.51 / ND / ND	1/9 (3.25)
GFTDMSYGIS	VIYSDGRRTNYGDSVK	GRAAGTFDS	ND / 3.10 / ND	3/9 (4.01)
GFTLNPYGPS	VIYSDGRRTFYGDSVK	GRAAGIFDS	ND / ND / 4.29	0/9
NFTLNSYGIS	VIYSDGLRTFYGDSTK	GRAAGTFDS	3.25 / 2.55 / 3.12	3/9 (3.47)
GFSLNSYGIS	VIYSDGRRTFYGDSVK	GRIANTFDS	ND / ND / 4.73	4/9 (4.10)
GFTLNSYGIS	VIYCDGRRTFYGDSVK	TRAAGTFDS	ND / ND / ND	0/9
HFTLNSYGIS	VIYSWGTRTFYGDSVK	GRAAGTFDS	ND / ND / ND	0/9
GPTLNSYGIR	VIYSDGRRTFYGDSVK	GRIAGTFDS	4.57 / ND / ND	2/9 (4.46)
TFTLNSYGIS	VIFSQGRRTFYGDSVK	GRAAGTFDS	4.67 / ND / ND	2/9 (4.50)
GFTLNSYGIS	VIYSDDRRTFYGDSVK	LRAAGTTDS	ND / ND / ND	2/9 (2.78)
GFTLNSYGIS	VIYSDGRRTFYGESVW	CRAAGTFDS	3.10 / 2.16 / 3.59	3/9 (3.68)
GFTLNSYQIS	VIYSDGRRTFYGDSVK	GLQAGTFDS	ND / ND / ND	0/9
GFTLNSAVIS	VIYSDGRRTTYGDSVK	GRAAGTFDS	ND / ND / ND	1/9 (4.07)
NFTLNSYGIS	IIYSDGRRTFYGDSFK	GRAAGTFDS	ND / ND / 4.38	0/9

Top 3 of the variants detected in all replicates, tightest first:

CDR-H1	CDR-H2	CDR-H3	replicates, log10 nM	signal with controls
GDFLNSYGIS	VIYSDGRRTFYGDSVK	GRAAGTFDS	1.18 / 1.35 / 1.35	5/9 (5.04)
GFTLNSYGIS	VIYSDGRRTFYGESVW	CRAAGTFDS	3.10 / 2.16 / 3.59	3/9 (3.68)
NFTLNSYGIS	VIYSDGLRTFYGDSTK	GRAAGTFDS	3.25 / 2.55 / 3.12	3/9 (3.47)